## Apparent affinities of Ab-14 variants for a coronavirus HR2 peptide

Values reported by Engelhart et al. 2022, doi:10.1038/s41597-022-01779-4 (FLAb copy).

Target peptide (SARS-CoV-2 spike, HR2 region): PDVDLGDISGINAS

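Phage display of a naive human antibody library on the peptide gave the parent. AAYL50 was designed without a model: most single CDR substitutions and a random sample of double and triple ones. The assay is AlphaSeq: two haploid yeast populations carry antibody and antigen on their surface. After mating in shaken culture at 30 °C for 16 h, diploids were selected and their barcode pairs sequenced. Each replicate has its own calibration line, from reference interactions of the BCL2 family. The assay was run in three technical replicates.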

Parent scFv Ab-14: VH joined to VL by three GGGGS repeats. Changes lie in the light chain CDRs alone.
VH: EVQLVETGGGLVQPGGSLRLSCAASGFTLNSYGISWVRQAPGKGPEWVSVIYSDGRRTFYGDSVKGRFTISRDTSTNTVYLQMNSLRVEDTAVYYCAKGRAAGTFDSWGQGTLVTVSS
VL: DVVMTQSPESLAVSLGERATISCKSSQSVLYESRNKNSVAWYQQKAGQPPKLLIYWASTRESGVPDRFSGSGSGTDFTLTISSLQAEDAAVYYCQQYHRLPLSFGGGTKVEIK

The parent's light chain CDRs are KSSQSVLYESRNKNSVA, WASTRES, QQYHRLPLS; each variant's own CDRs replace them letter for letter.
Affinities are written as log10 Kd with Kd in nM; a lower number is a better binder.
"ND" means that the variant was in the library but no mating with the target was seen in that replicate; the authors take this as a sign of poor binding, and no number exists.
Three control strains display no target. For library AAYL50, 18% of the pairings with them gave a signal, with a median of 4.19 and one signal in twenty below 2.99, so weak values seen in few replicates may be background. For each scFv, signals with the empty controls are counted beside the result, with their mean in brackets.

CDR-L1,CDR-L2,CDR-L3,log10 Kd (nM) by replicate,signal with controls
KFSQSVLYESRNKNSVA,WASTRES,QQYHRITLS,ND ND 4.52,0 of 9
KSSQSVLYEHRNKNSVA,WQSTLES,QQYHRLPLS,ND ND ND,0 of 9
KDSQSVLYESRNKNSVA,WATTRET,QQYHRLPLS,0.69 0.80 0.73,1 of 9 (3.83)
VSSQSVLYESRNKNSVA,WAITRES,QQYHRNPLS,ND ND 3.25,1 of 9 (3.44)
KSSQSVLYESRKKNSVA,NASTRES,QQYHRFPLS,0.64 0.91 1.44,0 of 9
KSSQSVLYESRNKNSVA,MASTRQS,QQYHVLPLS,0.58 0.85 0.62,2 of 9 (4.63)
KSSNSVLYVSRNKNSVA,WASTRES,QQYHRLPLS,2.72 2.90 3.57,4 of 9 (4.97)
KSSQSVLYESRNKNMVA,WASTREF,QQYHRDPLS,ND 2.98 ND,0 of 9
KSSQSVLYESRHKNSVA,WASTRTS,KQYHRLPLS,ND 3.61 ND,2 of 9 (3.26)
KSCQSWLYEKRNKNSVA,WASTRES,QQYHRLPLS,3.79 2.79 5.49,2 of 9 (3.99)
KSSQSRLYESRNKNSVT,WASTRDS,QQYHRLPLS,ND ND ND,0 of 9
KSSQSVLYESRNKNSAA,WNSTRES,QQYQRLPLS,ND ND ND,0 of 9
WSSQSVLYESRNKWSVA,WASTRES,QQYHRLPLQ,0.56 0.69 1.03,1 of 9 (2.50)
KSSQSDLYESRNKNSVA,WASTRGF,QQYHRLPLS,1.70 1.52 1.56,5 of 9 (4.00)
KSSQSMLYQSRNKNSVA,WASTREL,QQYHRLPLS,1.18 1.04 1.38,3 of 9 (4.35)
KSSQSVLYESRNKNFVA,WASTHES,QQYHRQPLS,4.28 3.37 5.83,5 of 9 (4.23)
KSSQSVQYESFNKNSVA,WASTGES,QQYHRLPLS,ND 2.50 3.89,2 of 9 (4.23)
KSHQSVLPESRNKNSVA,WASTRES,QQYHRYPLS,3.44 2.87 3.88,6 of 9 (4.09)
KSSQSVLYESRNKNRVA,WCCTRES,QQYHRLPLS,ND ND ND,0 of 9
TSSQSVLYESRNKNSVA,WALTRES,QQYHRLPYS,ND ND ND,0 of 9
KSSQSVLYWSRNKVSVA,WASTKES,QQYHRLPLS,ND 3.98 ND,1 of 9 (1.96)
KTSWSVLYESRNKNSVA,WASTRES,QQYHMLPLS,1.59 1.56 1.61,3 of 9 (3.49)
KSSQSVLYEWRNKNSVA,WASTRES,QQYFRLPWS,3.29 3.77 3.05,2 of 9 (4.00)
KSSKSVLYESRFKNSVA,WASTRES,QQYHRLPLY,ND ND 1.43,0 of 9
DSSQSVLYESRNKNSVA,WASTIES,QQYHRLPLR,ND ND 1.48,0 of 9
KSSQSDLYESRNKNSVA,WASTPLS,QQYHRLPLS,1.99 2.22 2.24,0 of 9
KSSQHVLYESRDKNSVK,WASTRES,QQYHRLPLS,ND ND ND,0 of 9
KSSQSVLYESRNKQSVA,FMSTRES,QQYHRLPLS,2.65 2.58 2.66,2 of 9 (3.64)
KSNQSVLYESRNKNSVQ,WYSTRES,QQYHRLPLS,4.69 ND ND,4 of 9 (4.48)
KSSQSVLYEYRNKNSVA,WASKRES,QQYHRQPLS,3.43 ND ND,2 of 9 (4.36)
KSSQSVLYEWRNKNSVA,WISTRES,QQYHRLWLS,ND 4.04 4.47,1 of 9 (4.90)
KSSQSVLYESRNKNSVA,WASTRES,QQYYRLPYS,2.01 1.85 2.18,3 of 9 (3.97)
KSSQSVLMESRNKNSVA,HASTRES,QQYHRYPLS,0.06 0.33 0.20,3 of 9 (5.65)
KSSQSVLYESRNKNSVA,WRSTRES,QQYHRLNLS,ND ND 2.07,0 of 9
KSSQSVFYSSRNKNSVG,WASTRES,QQYHRLPLS,3.93 ND ND,3 of 9 (4.12)
KSSQKVCYESRNKNSVM,WASTRES,QQYHRLPLS,ND ND 4.93,0 of 9
KSSQSVLYESFNKNCVA,WASTRES,QQYHRLPYS,ND ND ND,0 of 9
KSSQSVLYESRWKYSVA,WESTRES,QQYHRLPLS,3.45 ND ND,0 of 9
KSSQSVNYESRNKNSVT,WASTRES,QQSHRLPLS,ND ND ND,0 of 9
LSSQSVLYRSRNRNSVA,WASTRES,QQYHRLPLS,3.49 3.18 4.22,0 of 9
KSSQSVLWFSRNKNSVA,WASTGES,QQYHRLPLS,ND ND ND,1 of 9 (3.47)
KSSQSVLYESRNGNSVA,WASKWES,QQYHRLPLS,3.43 ND ND,0 of 9
HSSQQVLYESRNKNSVA,WASTRES,QQYHRLPLS,ND ND 3.95,3 of 9 (4.23)
KSSQSVLYESGNKNSVG,WASIRES,QQYHRLPLS,2.18 2.02 2.41,2 of 9 (4.19)
KSTQSVLYESRNKNNVA,WASTRES,QQYHRLPLS,0.34 0.61 0.50,8 of 9 (4.76)
KSSQSVLYESRNKMLVA,WASTRES,WQYHRLPLS,ND ND ND,2 of 9 (4.27)
KSSQSVLYESRAKNSVA,WASTRES,QQYHRLPLW,0.97 1.05 1.03,0 of 9
PSSQWVLPESRNKNSVA,WASTRES,QQYHRLPLS,2.77 2.36 3.13,2 of 9 (3.91)

Picked from the list: the 7 lowest averages where every replicate gave a value.

CDR-L1	CDR-L2	CDR-L3	log10 Kd (nM) by replicate	signal with controls
KSSQSVLMESRNKNSVA	HASTRES	QQYHRYPLS	0.06 0.33 0.20	3 of 9 (5.65)
KSTQSVLYESRNKNNVA	WASTRES	QQYHRLPLS	0.34 0.61 0.50	8 of 9 (4.76)
KSSQSVLYESRNKNSVA	MASTRQS	QQYHVLPLS	0.58 0.85 0.62	2 of 9 (4.63)
KDSQSVLYESRNKNSVA	WATTRET	QQYHRLPLS	0.69 0.80 0.73	1 of 9 (3.83)
WSSQSVLYESRNKWSVA	WASTRES	QQYHRLPLQ	0.56 0.69 1.03	1 of 9 (2.50)
KSSQSVLYESRKKNSVA	NASTRES	QQYHRFPLS	0.64 0.91 1.44	0 of 9
KSSQSVLYESRAKNSVA	WASTRES	QQYHRLPLW	0.97 1.05 1.03	0 of 9